Test results published in patent US20260284016A1, “COMBINATIONS AND METHODS FOR ENHANCING CHECKPOINT INHIBITOR THERAPIES IN CANCER TREATMENT” (PURDUE RESEARCH FOUNDATION, priority 2004, published 2026).

Columns and labels:
[1] = test system: BM-induced mice; conditions: mouse, in vivo
Protocol: Studies were also performed to determine if macrophages in pulmonary fibrotic lungs might be specifically targeted with folate-linked drugs in vivo. […] (The BM model is widely regarded to be helpful in terms of enabling mechanistic investigations relevant to fibrogenesis in an in vivo context.)
More specifically, eight-week-old C57BL6 male mice from Charles River (average weight 22 g to 25 g) were housed under pathogen-free conditions at room temperature (22° C.) under a 12 hours light-dark cycle. Mice were placed on a folate deficient chow (Envigo Teklad Global Rat Food Pellets) for 1 week prior to the BM or PBS instillation. Fresh water and folate-deficient diet were freely available. […]
Thereafter, the mice were anesthetized with ketamine/xylazine and the necks of the mice were shaved using hair remover lotion and then sterilized with 70% alcohol. […] Body weights were monitored every other day throughout the experiment. […]
For the subsequent HYP analysis, 10 μl of sample was transferred into a 96-well plate and neutralized with 10 μl of 5.3 M sodium hydroxide solution. […] The absorbance was measured at 560 nm (A560) within 15 min. […]
Two doses were given every other day till day 21. […] Mice were then sacrificed on day 21 and subjected immediately to bronchoalveolar lavage followed by resection of the lungs for immunohistochemistry and quantitation of collagen and hydroxyproline.

[2] = test system: healthy mice; conditions: mouse, in vivo

## CCCCc1nc2c(N)nc3ccccc3c2n1CC(C)(C)O [Compound 1A]
[1]
  weight loss: > 25%
[2]
  systemic cytokine release (plasma IL-6, IFNα, TNFα): stimulates systemic cytokine release
